Each structure is given as a SMILES string.

Chains of the proteins cited; added tags and fusions are not shown. Lines headed by an entry give the natural chain unless they say otherwise; changes in a name come on top.
UniProt P41145: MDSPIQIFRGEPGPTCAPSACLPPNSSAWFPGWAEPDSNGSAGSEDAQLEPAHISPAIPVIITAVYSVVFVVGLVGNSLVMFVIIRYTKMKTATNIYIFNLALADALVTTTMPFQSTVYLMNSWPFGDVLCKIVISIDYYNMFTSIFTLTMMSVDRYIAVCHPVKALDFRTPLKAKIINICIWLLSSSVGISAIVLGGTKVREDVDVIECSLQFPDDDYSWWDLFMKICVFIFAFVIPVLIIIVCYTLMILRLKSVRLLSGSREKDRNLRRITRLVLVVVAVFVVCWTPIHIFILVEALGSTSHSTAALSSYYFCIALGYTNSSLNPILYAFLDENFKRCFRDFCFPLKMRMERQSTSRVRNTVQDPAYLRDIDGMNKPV
UniProt P35372, whole entry, looked up: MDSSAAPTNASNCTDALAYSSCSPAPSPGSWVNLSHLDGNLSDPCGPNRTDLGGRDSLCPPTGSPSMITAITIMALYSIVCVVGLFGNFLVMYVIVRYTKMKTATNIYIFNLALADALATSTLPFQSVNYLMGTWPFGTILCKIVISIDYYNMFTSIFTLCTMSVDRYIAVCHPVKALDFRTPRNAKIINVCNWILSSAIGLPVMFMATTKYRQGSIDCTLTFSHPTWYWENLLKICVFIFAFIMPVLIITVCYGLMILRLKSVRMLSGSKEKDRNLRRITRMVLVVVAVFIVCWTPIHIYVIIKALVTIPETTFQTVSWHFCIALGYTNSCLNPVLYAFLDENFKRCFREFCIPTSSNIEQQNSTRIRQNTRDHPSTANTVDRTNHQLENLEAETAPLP

For the assay, the target named is Opioid receptors; mu & kappa (Homo sapiens) (UniProt P41145+P35372). Description: Selectivity Ratio is the ratio of opioid receptor kappa (Ki(nM)) to the opioid receptor mu (Ki(nM)). As to conditions: Cavia porcellus.
For the compound `C[C@@H]1CN(C(=O)Cc2ccc(Cl)c(Cl)c2)[C@@H](CN2CCCC2)c2ccccc21`, the Selectivity ratio was 94.

`O=C(Cc1ccc(Cl)c(Cl)c1)N1CCc2c(O)cccc2C1CN1CCCC1` (stereo unspecified): the Selectivity ratio was 5.4. On to `CC1(C)CN(C(=O)Cc2ccc(Cl)c(Cl)c2)C(CN2CCCC2)c2ccccc21` (stereo unspecified), for which the Selectivity ratio was found to be 104. As to `O=C(Cc1ccc(Cl)c(Cl)c1)N1CCc2ccccc2C1CN1CCCC1` (stereo unspecified), the Selectivity ratio is 151. To `CN(C(=O)Cc1ccc(Cl)c(Cl)c1)C1CCCCC1N1CCCC1` (stereo unspecified) belongs 280; to `C[C@@H]1Cc2ccccc2[C@H](CN2CCCC2)N1C(=O)Cc1ccc(Cl)c(Cl)c1`, 26.
